Results: patent publication US5066783A, “Antiviral peptides and means for treating herpes infections” (priority 1988, dated 1991)

Amino acid sequences for entries named in this document (tags omitted). A change or cut given only in a name is not applied to a line headed by its entry.
UniProt P08543: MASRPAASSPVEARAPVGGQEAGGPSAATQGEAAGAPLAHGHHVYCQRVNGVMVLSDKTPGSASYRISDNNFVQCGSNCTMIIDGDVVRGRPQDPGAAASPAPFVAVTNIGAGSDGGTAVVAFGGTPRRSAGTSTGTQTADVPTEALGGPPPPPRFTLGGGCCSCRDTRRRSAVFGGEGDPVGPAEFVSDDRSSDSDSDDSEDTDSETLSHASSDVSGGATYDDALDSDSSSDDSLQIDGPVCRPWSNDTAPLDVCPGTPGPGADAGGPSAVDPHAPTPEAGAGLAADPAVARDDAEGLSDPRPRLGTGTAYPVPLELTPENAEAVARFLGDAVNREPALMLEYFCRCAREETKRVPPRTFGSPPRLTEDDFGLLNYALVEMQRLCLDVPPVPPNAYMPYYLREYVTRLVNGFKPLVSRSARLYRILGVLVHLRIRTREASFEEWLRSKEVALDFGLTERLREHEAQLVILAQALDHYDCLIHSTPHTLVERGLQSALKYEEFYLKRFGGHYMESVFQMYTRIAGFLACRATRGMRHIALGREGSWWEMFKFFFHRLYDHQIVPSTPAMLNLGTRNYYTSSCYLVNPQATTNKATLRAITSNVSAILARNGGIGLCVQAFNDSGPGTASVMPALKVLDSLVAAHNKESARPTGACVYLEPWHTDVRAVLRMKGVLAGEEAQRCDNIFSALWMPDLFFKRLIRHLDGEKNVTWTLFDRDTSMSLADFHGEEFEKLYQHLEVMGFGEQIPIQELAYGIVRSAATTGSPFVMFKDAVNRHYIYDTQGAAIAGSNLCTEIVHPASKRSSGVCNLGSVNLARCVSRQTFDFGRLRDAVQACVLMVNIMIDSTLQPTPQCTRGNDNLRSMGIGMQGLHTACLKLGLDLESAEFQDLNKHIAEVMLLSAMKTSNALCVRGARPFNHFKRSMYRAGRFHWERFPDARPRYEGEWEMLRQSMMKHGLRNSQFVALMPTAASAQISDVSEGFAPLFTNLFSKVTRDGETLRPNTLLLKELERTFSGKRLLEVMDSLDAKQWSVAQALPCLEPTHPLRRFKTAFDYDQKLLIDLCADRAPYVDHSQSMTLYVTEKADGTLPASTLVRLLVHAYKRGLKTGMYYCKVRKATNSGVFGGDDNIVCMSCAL

Columns and labels:
[1] = biological target: T1, herpes simplex viral ribonucleotide reductase (Human herpesvirus 1, UniProt P08543); type: biochemical, herpes simplex virus; settings: read-out: IC50 (concentration producing 50% of the maximal inhibition of enzyme activity)
T1 construct: endogenous in cells

[2] = biological target: ribonucleotide reductase from HSV-1 (strain F)-infected BHK-21/C13 cells (Human herpesvirus 1, UniProt P08543); assay: HSV-1 ribonucleotide reductase (CDP reductase) inhibition

Row | SMILES | IC50 [1] [µM] | IC50 [2] [µM]
1 | CC(C)C[C@H](NC(=O)[C@H](CC(=O)O)NC(=O)[C@H](CC(N)=O)NC(=O)[C@@H](NC(=O)[C@@H](NC(=O)[C@H](C)NC(=O)CNC(=O)[C@@H](C)NC(=O)[C@@H](N)Cc1ccc(O)cc1)C(C)C)C(C)C)C(=O)O [H--Tyr--D--Ala--Gly--Ala--Val--Val--Asn--Asp--Leu--OH] | 200 | 
2 | CC(C)C[C@H](NC(=O)[C@H](CC(=O)O)NC(=O)[C@H](CC(N)=O)NC(=O)[C@@H](NC(=O)[C@@H](NC(=O)[C@H](C)NC(=O)CNC(=O)[C@H](C)NC(=O)[C@H](N)Cc1ccc(O)cc1)C(C)C)C(C)C)C(=O)O [H--D--Tyr--Ala--Gly--Ala--Val--Val--Asn--Asp--Leu--OH] | 200 | 
3 | CC(C)C[C@H](NC(=O)[C@H](CC(=O)O)NC(=O)[C@H](CC(N)=O)NC(=O)[C@@H](NC(=O)[C@@H](NC(=O)[C@H](C)NC(=O)CNC(=O)[C@H](C)NC(=O)[C@@H](N)Cc1ccc(O)cc1)C(C)C)C(C)C)C(=O)O [HSV 7-15, L-tyrosyl-L-alanyl-glycyl-L-alanyl-L-valyl-L-valyl-L-asparagyl-L-aspartyl- L-leucine] |  | 22
